Measurements published in paper PMC11522279.

B1: YAP (Yes-associated protein): OGA overexpression (protein)
parent chain: MDPGQQPPPQPAPQGQGQPPSQPPQGQGPPSGPGQPAPAATQAAPQAPPAGHQIVHVRGDSETDLEALFNAVMNPKTANVPQTVPMRLRKLPDSFFKPPEPKSHSRQASTDAGTAGALTPQHVRAHSSPASLQLGAVSPGTLTPTGVVSGPAATPTAQHLRQSSFEIPDDVPLPAGWEMAKTSSGQRYFLNHIDQTTTWQDPRKAMLSQMNVTAPTSPPVQQNMMNSASGPLPDGWEQAMTQDGEIYYINHKNKTTSWLDPRLDPRFAMNQRISQSAPVKQPPPLAPQSPQGGVMGGSNSNQQQQMRLQQLQMEKERLRLKQQELLRQVRPQAMRNINPSTANSPKCQELALRSQLPTLEQDGGTQNPVSSPGMSQELRTMTTNSSDPFLNSGTYHSRDESTDSGLSMSSYSVPRTPDDFLNSVDEMDTGDTINQSTLPSQQNRFPDYLEAIPGTNVDLGTLEGDGMNIEGEELMPSLQEALSSDILNDMESVLAATKLDKESFLTWL
B2: YAP (Yes-associated protein): siOGT (protein)
parent chain: B1 parent chain

Experiments:
[1] = HRCECs, Ad-OGT / Ad-OGA, blot; conditions: glycan lost; control: control adenovirus
[2] = HRCECs, Ad-Flag-YAP, 25 mM glucose, blot; conditions: glycan lost; control: siCtrl
[3] = nuclear localisation of Flag-YAP-WT, HRCECs; conditions: glycan lost; control: siCtrl

| Protein | other: phosphorylation at S397 [1] | other: phosphorylation at S397 [2] | localisation_or_trafficking [3] |
| --- | --- | --- | --- |
| B1 | increases | – | – |
| B2 | – | increases | decreases |
